Antibody variant affinities, Ab-95 light chain, assay 2

Binding partner: SARS-CoV-2 spike HR2 peptide, sequence PDVDLGDISGINAS.

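Library AAYL52 holds single substitutions and randomly drawn double and triple substitutions in the CDRs. AlphaSeq pools MATa yeast showing the antibodies with MATalpha yeast showing the peptide. Binding brings cells together so that they mate, and sequencing counts the barcode pairs among the diploids. A regression on co-assayed BCL2-family reference pairs converts the normalised counts of each replicate to an apparent Kd. There are three technical replicates.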

Parent scFv Ab-95: VH joined to VL by the linker GGGGSGGGGSGGGGS. Changes lie in the light chain CDRs alone.
VH: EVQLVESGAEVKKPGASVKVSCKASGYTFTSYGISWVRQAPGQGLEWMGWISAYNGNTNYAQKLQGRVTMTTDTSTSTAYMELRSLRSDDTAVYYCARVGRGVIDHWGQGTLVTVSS
VL: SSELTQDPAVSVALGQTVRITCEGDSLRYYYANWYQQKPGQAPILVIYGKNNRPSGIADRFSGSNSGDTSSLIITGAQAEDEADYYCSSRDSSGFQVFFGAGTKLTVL

The parent's light chain CDRs are EGDSLRYYYAN, GKNNRPS, SSRDSSGFQVF; each variant's own CDRs replace them letter for letter.
Numbers give log10(Kd / nM), so 0 is 1 nM and 3 is 1 µM. Smaller is tighter.
A mean of the replicates is given; it leaves out those without a signal.
Where no diploid with the target was found in that replicate, the entry reads "ND": below detection, most likely a poor binder, though not proof of it.
Parent in this assay: reference entry 2.31, copy in this library 2.25.
Nonspecific signal, from three strains lacking the peptide, appeared in 28% of pairings of library AAYL52, centred on 3.91 (5% of these signals below 2.90); values are not corrected for it.

CDR-L1	CDR-L2	CDR-L3	replicates, log10 nM	mean log10 Kd (nM)
EGDSLRYHAEN	GKNNRPS	SSRDSSGFQVF	2.44 2.49 2.17	2.37
DGDSLRYYYAA	GKNNRPS	SSRDYSGFQVF	ND ND ND	ND
EGDSLRYYYAN	GKNNRPS	AIRDSSGFQVF	3.53 ND 3.88	3.71
EGFSLRYYYAN	GKMNRPS	SSRDSSGFQVF	ND 4.57 ND	4.57
EGDSLEYYYAT	GKNNRPS	SSRDSSVFQVF	5.20 4.74 ND	4.97
EGDSLRYYYAN	GKNNRPS	SSVSSLGFQVF	ND ND 3.44	3.44
EGDSLIYYYAN	GKNNRPP	SSRDSSCFQVF	3.76 4.67 ND	4.22
EGDSLRYYYAF	GKNNRPS	SNRDSSGRQVF	3.81 3.70 ND	3.76
EGDSHRYFYAN	GKNNRPS	SSRDSSGFQVR	3.04 2.74 ND	2.89
EGDTLRAYYAN	GKNNRPS	SSRDSSGFQVF	2.75 2.54 2.20	2.50
EGDSCRYYYAN	GKNRRPS	SSRDSSGFQWF	ND ND ND	ND
EGDSLRYYYAN	GKNNRPS	HSRDSSGNQVF	2.18 2.48 2.18	2.28
EGDSLHYYYAN	GKNNRPS	VSEDSSGFQVF	2.77 2.16 2.26	2.40
RGDSLREYYAN	GKNNRPS	SSRDSSGFQRF	4.25 5.70 ND	4.98
EGDSLRYYYAN	GKHNRPS	SSRDYSGFQVV	3.44 2.94 3.58	3.32
FGDSLHYYYAN	GKNNRPS	SSRDSWGFQVF	2.97 3.05 3.99	3.33
EGDSLRYYYRN	GKNNRPS	SSRDSYGAQVF	ND ND ND	ND
EGDSLNYYYAN	GKPNRPS	SSRDSSGFQVP	ND 4.58 3.37	3.97
EGDALRYYYAN	GKNNIPS	SSRDSSGFQCF	ND ND ND	ND
EGDSLRYYVAN	GKNNRPS	SSRDSSGTLVF	4.07 5.07 3.35	4.16
EGLSLYYYYAW	GKNNRPS	SSRDSSGFQVF	4.14 ND ND	4.14
EGDSLRYYYAN	RKNNRPS	SHRDSSGFQVF	2.68 3.89 4.40	3.65
EGESLRYAYAN	GKNNRPS	SCRDSSGFQVF	0.79 0.56 0.08	0.48
EGFSDRYTYAN	GKNNRPS	SSRDSSGFQVF	2.26 2.51 3.79	2.85
EGDSLRYYYAN	GKNNRPS	YSPDSSGFQVF	2.23 2.41 1.62	2.09
EGDSPRYYYAN	GKNERPS	NSRDSSGFQVF	ND ND ND	ND
EGDKLRYYYAQ	GKNNRPQ	SSRDSSGFQVF	3.92 3.41 ND	3.67
EGDILRYYGAN	GKNNRPS	SSKDSSGFQVF	2.79 2.51 2.73	2.68
EIDSLRYYYAN	GKNWRPS	SSRDSSGGQVF	3.41 ND ND	3.41
ESDSLRYPYAN	GKINRPS	SSRDSSGFQVF	2.95 2.48 ND	2.71

The last 4 entries again:

CDR-L1,CDR-L2,CDR-L3,"replicates, log10 nM",mean log10 Kd (nM)
EGDKLRYYYAQ,GKNNRPQ,SSRDSSGFQVF,3.92 3.41 ND,3.67
EGDILRYYGAN,GKNNRPS,SSKDSSGFQVF,2.79 2.51 2.73,2.68
EIDSLRYYYAN,GKNWRPS,SSRDSSGGQVF,3.41 ND ND,3.41
ESDSLRYPYAN,GKINRPS,SSRDSSGFQVF,2.95 2.48 ND,2.71

Values reported by Engelhart et al. 2022, doi:10.1038/s41597-022-01779-4 (FLAb copy).